From patent publication US9399017B2, “Peptide pharmaceutical for oral delivery” (Enteris BioPharma, Inc., priority 2007, dated 2016)

Test: PTH(1-31)NH2 content, stability and recovery in tablets following manufacture
Type: physicochemical
Details: for PTH(1-31)NH2 Impurity 1 / PTH(1-31)NH2 Impurity 2: oxidation impurity; for PTH(1-31)NH2 Purity: tablets following manufacture
Experimental: PTH(1-31)NH2 (2 mg) and lauroyl-L-carnitine (50 mg) were dispersed in tablets prepared as described in Table 2 with and without 1 mg sodium pyruvate. The tablets were sealed with a non-ionic subcoat and an L30D-55 enteric coat. The PTH(1-31)NH2 content of the tablets was analyzed following their manufacture.

PTH(1-31)NH2 Impurity 1 (Sodium Pyruvate 0 mg): 3.7% | PTH(1-31)NH2 Impurity 2 (Sodium Pyruvate 0 mg): 5.4% | PTH(1-31)NH2 Purity (Sodium Pyruvate 0 mg): 88.1% | PTH(1-31)NH2 Impurity 1 (Sodium Pyruvate 1 mg): 0.0% | PTH(1-31)NH2 Impurity 2 (Sodium Pyruvate 1 mg): 0.0% | PTH(1-31)NH2 Purity (Sodium Pyruvate 1 mg): 98.1%
Compound: CC[C@H](C)[C@H](NC(=O)[C@H](CCC(=O)O)NC(=O)[C@H](CO)NC(=O)[C@@H](NC(=O)[C@@H](N)CO)C(C)C)C(=O)N[C@@H](CCC(N)=O)C(=O)N[C@@H](CC(C)C)C(=O)N[C@@H](CCSC)C(=O)N[C@@H](Cc1c[nH]cn1)C(=O)N[C@@H](CC(N)=O)C(=O)N[C@@H](CC(C)C)C(=O)NCC(=O)N[C@@H](CCCCN)C(=O)N[C@@H](Cc1c[nH]cn1)C(=O)N[C@@H](CC(C)C)C(=O)N[C@@H](CC(N)=O)C(=O)N[C@@H](CO)C(=O)N[C@@H](CCSC)C(=O)N[C@@H](CCC(=O)O)C(=O)N[C@@H](CCCNC(=N)N)C(=O)N[C@H](C(=O)N[C@@H](CCC(=O)O)C(=O)N[C@@H](Cc1c[nH]c2ccccc12)C(=O)N[C@@H](CC(C)C)C(=O)N[C@@H](CCCNC(=N)N)C(=O)N[C@@H](CCCCN)C(=O)N[C@@H](CCCCN)C(=O)N[C@@H](CC(C)C)C(=O)N[C@@H](CCC(N)=O)C(=O)N[C@@H](CC(=O)O)C(=O)N[C@H](C(N)=O)C(C)C)C(C)C [PTH(1-31)NH2]
